Drawing on PubChem BioAssay AID588342 (National Center for Advancing Translational Sciences (NCATS), 2011), this text covers activity change, negative = inhibition for 61 molecules.

The chains behind the UniProt entries cited, without tags or fusion partners.
UniProt P08659, whole entry: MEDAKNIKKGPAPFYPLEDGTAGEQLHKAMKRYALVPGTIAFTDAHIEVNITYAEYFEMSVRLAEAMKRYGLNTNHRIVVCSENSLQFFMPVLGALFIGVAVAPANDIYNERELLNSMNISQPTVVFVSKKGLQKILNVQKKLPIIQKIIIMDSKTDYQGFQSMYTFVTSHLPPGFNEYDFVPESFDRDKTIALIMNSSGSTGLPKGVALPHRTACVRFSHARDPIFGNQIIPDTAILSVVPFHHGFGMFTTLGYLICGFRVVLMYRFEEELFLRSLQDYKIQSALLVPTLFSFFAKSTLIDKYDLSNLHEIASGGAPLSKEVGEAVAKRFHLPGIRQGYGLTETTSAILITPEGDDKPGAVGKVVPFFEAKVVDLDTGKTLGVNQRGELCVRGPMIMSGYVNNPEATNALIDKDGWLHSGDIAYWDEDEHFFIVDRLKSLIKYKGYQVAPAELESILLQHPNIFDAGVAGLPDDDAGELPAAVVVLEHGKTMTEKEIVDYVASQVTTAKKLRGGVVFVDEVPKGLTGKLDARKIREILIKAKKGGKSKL

The list shows a part of the results, in another mix than the full data. Inconclusive results are not listed. Some structures show a salt or complex split into parts, the way the source records it. Active and inactive are the calls of the source. Calls follow the shape of the dose curve; as a rule, active = well fitted inhibition curve with a large enough effect; inconclusive = small, poorly fitted or top-dose-only effect; inactive = flat fitted curve, though single readings scatter.

The target in this experiment is Luciferin 4-monooxygenase (Photinus pyralis) (UniProt P08659). The experiment in a line: qHTS profiling assay for firefly luciferase inhibitor/activator using purifed enzyme and Km concentrations of substrates (counterscreen for miR-21 project).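 Also: plate controls were vehicle for no effect and reference inhibitor for full effect; nearly all actives have a fitted effect of over 55% in size.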 The conditions noted are these: purified FLuc, luminescence inhibition; at 57.5 µM (top of the series). In general terms: qHTS replaces the single test concentration by a dilution series.
Turning to `CCN1CCC(Nc2cccc(F)c2)CC1`, the activity change, negative = inhibition was inactive: -1.83%.

On to `Cc1ccccc1C(=O)NCC1(N(C)C)CCCCC1`, for which the activity change, negative = inhibition was inactive: 2.8%.

Take `CN(C)c1ccc(C(=O)NCC2(N3CCCCC3)CCCCC2)cc1`: the activity change, negative = inhibition is inactive: -1.9%.

Take `O=C(NCC1(N2CCCCC2)CCCCC1)c1ccco1`: the activity change, negative = inhibition is inactive: 2.49%.

With `CC(C)(C)c1ccc(C(=O)NCC2(N3CCOCC3)CCCCC2)cc1`, the activity change, negative = inhibition is inactive: 0.828%.

For `CN(C)C1(CNC(=O)c2ccc(C(C)(C)C)cc2)CCCCC1`, the activity change, negative = inhibition is inactive: -0.577%.

Consider `COc1cc(OC)cc(C(=O)NCC2(N3CCCCC3)CCCCC2)c1`, for which the activity change, negative = inhibition was inactive: 2.12%.

As for `Fc1ccccc1NC1CCN(Cc2ccccc2)CC1`, the activity change, negative = inhibition was inactive: -2.16%.

For the molecule `Cc1ccc(C(=O)NCC2(N3CCCCC3)CCCCC2)o1`, the activity change, negative = inhibition was inactive: 2.45%.

On to `COc1cc(OC)cc(C(=O)NCC2(N3CCOCC3)CCCCC2)c1`, for which the activity change, negative = inhibition was inactive: 0.339%.

In the case of `COc1cc(C(=O)NCC2(N3CCOCC3)CCCCC2)cc(OC)c1OC`, the activity change, negative = inhibition was inactive: 5.97%.

With `COc1cccc(C(=O)N(c2cc(C)cc(C)c2)C2CCN(C(=O)OC(C)(C)C)CC2)c1`, the activity change, negative = inhibition is inactive: 1.32%.

In the case of `CCC(CO)(C(=O)OC1CN2CCC1CC2)c1ccccc1` (stereo unspecified), the activity change, negative = inhibition is inactive: 7.52%.

With `CN1CCC(Nc2ccc(Cl)cc2)CC1`, the activity change, negative = inhibition was inactive: -0.0521%.

On to `CCCOc1ccc(C)cc1CN(CCCl)CCCl`, for which the activity change, negative = inhibition was inactive: 0.35%.

For `CN1CCC(Nc2ccc(F)c(Cl)c2)CC1`, the activity change, negative = inhibition was inactive: -0.0726%.

Take `CCOc1ncccc1C(=O)NCC1(N2CCOCC2)CCCCC1`: the activity change, negative = inhibition is inactive: 4.74%.

On to `O=C(O)C1(Nc2ccccc2)CCN(Cc2ccccc2)CC1`, for which the activity change, negative = inhibition is inactive: -0.0162%.

For the molecule `CC(C)(C)OC(=O)N1CCC(Nc2ccccc2)CC1`, the activity change, negative = inhibition is inactive: 0.217%.

As for `CCCOc1ccc(C(=O)NCC2(N(C)C)CCCCC2)cc1`, the activity change, negative = inhibition was inactive: -2.11%.

Regarding `CCOC(=O)N1CCC(Nc2ccc(C)cc2)CC1`, the activity change, negative = inhibition was inactive: -1.49%.

In the case of `N/C(=N\O)c1c(N)no[n+]1[O-]`, the activity change, negative = inhibition is inactive: 2.7%.

Consider `O=C(O)c1cccc(Nc2c([N+](=O)[O-])cc([N+](=O)[O-])cc2[N+](=O)[O-])c1`, for which the activity change, negative = inhibition is inactive: -3.26%.

As for `CCc1cc(C(=O)NCC2(N3CCCCC3)CCCCC2)sc1C`, the activity change, negative = inhibition was inactive: -1.43%.

Turning to `O=C(OC1CN2CCC1CC2)C1c2ccccc2C=Cc2ccccc21` (stereo unspecified), the activity change, negative = inhibition is inactive: 0.221%.

On to `O=C(NCC1(N2CCOCC2)CCCCC1)c1cc(Br)ccc1Cl`, for which the activity change, negative = inhibition was inactive: 3.63%.

As for `COc1ccc(C(=O)NCC2(N3CCOCC3)CCCCC2)cc1OC`, the activity change, negative = inhibition was inactive: 0.137%.

In the case of `CN(C)C1(CNC(=O)c2cccc(C#N)c2)CCCCC1`, the activity change, negative = inhibition is inactive: 0.0355%.

Turning to `O=C(NCC1(N2CCOCC2)CCCCC1)c1ccccc1`, the activity change, negative = inhibition was inactive: -2.67%.

In the case of `CCCN1CCC(Nc2cc(OC)cc(OC)c2)CC1`, the activity change, negative = inhibition is inactive: 0.976%.

For the molecule `c1ccc(CN2CCC(Nc3ccccc3)CC2)cc1`, the activity change, negative = inhibition is inactive: -0.278%.

In the case of `N#Cc1ccc(C(=O)NCC2(N3CCCCC3)CCCCC2)cc1`, the activity change, negative = inhibition is inactive: 1.4%.

On to `O=C(NCC1(N2CCOCC2)CCCCC1)c1ccccc1[N+](=O)[O-]`, for which the activity change, negative = inhibition was inactive: -1.4%.

On to `O=C(NCC1(N2CCOCC2)CCCCC1)c1ccc([N+](=O)[O-])cc1`, for which the activity change, negative = inhibition was inactive: 0.154%.

As to `CC(C)(C)OC(=O)N1CCC(N(C(=O)c2ccccc2)c2ccc(Cl)cc2)CC1`, the activity change, negative = inhibition was inactive: -0.833%.

Turning to `CCOC(=O)C(CC)C1=NC(C)(C)Cc2ccccc21.O=[N+]([O-])c1cc([N+](=O)[O-])c(O)c([N+](=O)[O-])c1` (stereo unspecified), the activity change, negative = inhibition is inactive: 1.62%.

Take `O=[N+]([O-])c1cc([N+](=O)[O-])c(NCC2CCS(=O)(=O)C2)c([N+](=O)[O-])c1` (stereo unspecified): the activity change, negative = inhibition is inactive: -1.51%.

Take `CCCOc1cccc(C(=O)NCC2(N3CCOCC3)CCCCC2)c1`: the activity change, negative = inhibition was inactive: -7.47%.

In the case of `O=C(NCC1(N2CCCCC2)CCCCC1)c1cccc(C(F)(F)F)c1`, the activity change, negative = inhibition was inactive: 3.99%.

Turning to `COc1cc(C(=O)NCC2(N3CCCCC3)CCCCC2)ccc1OC(F)F`, the activity change, negative = inhibition was inactive: -0.161%.

For the molecule `O=C(NCC1(N2CCOCC2)CCCCC1)c1cc(=O)[nH]c2ccccc12`, the activity change, negative = inhibition is inactive: -0.448%.

With `CN1CCN(CCOC(=O)C(O)(c2ccccc2)c2ccccc2)CC1`, the activity change, negative = inhibition is inactive: -1.76%.

For the molecule `CC(C)c1ccc(C(=O)NCC2(N3CCOCC3)CCCCC2)cc1`, the activity change, negative = inhibition was inactive: 1.88%.

For `COc1ccc(NC2CCN(C(=O)OC(C)(C)C)CC2)cc1`, the activity change, negative = inhibition is inactive: -2.28%.

On to `O=C(NCC1(N2CCCCC2)CCCCC1)c1ccc(OC(F)F)cc1`, for which the activity change, negative = inhibition was inactive: 2.63%.

As to `N#CC1(Nc2ccccc2)CCN(CCc2ccccc2)CC1`, the activity change, negative = inhibition was inactive: 1.48%.

In the case of `CCN1CCC(Nc2ccc(Cl)cc2)CC1`, the activity change, negative = inhibition is inactive: -1.57%.

With `CSc1ccc(C(=O)NCC2(N3CCOCC3)CCCCC2)cc1`, the activity change, negative = inhibition was inactive: 3.23%.

Turning to `CCOc1ccc(C(=O)NCC2(N3CCOCC3)CCCCC2)cc1`, the activity change, negative = inhibition was inactive: 5.03%.

As for `O=C(NCC1(N2CCCCC2)CCCCC1)c1cccc([N+](=O)[O-])c1`, the activity change, negative = inhibition is inactive: 4.79%.

`O=C(OC1CN2CCC1CC2)c1ccc([N+](=O)[O-])cc1` (stereo unspecified): the activity change, negative = inhibition was inactive: 5.16%.

As for `COc1ccc2c(c1O)-c1c(O)c(OC)cc3c1[C@H](C2)[N+](C)(C)CC3.O=[N+]([O-])c1cc([N+](=O)[O-])c([O-])c([N+](=O)[O-])c1[O-]`, the activity change, negative = inhibition is inactive: -9.86%.

Take `O=C(NCC1(N2CCCCC2)CCCCC1)c1cncc(Br)c1`: the activity change, negative = inhibition is inactive: -0.532%.

For the molecule `O=C(NCC1(N2CCOCC2)CCCCC1)c1ccccc1Br`, the activity change, negative = inhibition is inactive: -7.88%.

Take `CCCOc1ccc(C(=O)NCC2(N(C)C)CCCCC2)cc1OC`: the activity change, negative = inhibition is inactive: -0.475%.

In the case of `CCCCOc1ccccc1C(=O)NCC1(N2CCOCC2)CCCCC1`, the activity change, negative = inhibition was inactive: -10.2%.

For `O=[N+]([O-])c1cc([N+](=O)[O-])c(OC2CCCCC2O)c([N+](=O)[O-])c1` (stereo unspecified), the activity change, negative = inhibition is inactive: -0.658%.

With `CN(C)c1cccc(C(=O)NCC2(N3CCCCC3)CCCCC2)c1`, the activity change, negative = inhibition was inactive: 0.0947%.

On to `COc1ccc(CN(CCCl)CCCl)cc1Cl`, for which the activity change, negative = inhibition is inactive: 4.19%.

As to `COc1cc(OC)c(C(=O)NCC2(N(C)C)CCCCC2)cc1OC`, the activity change, negative = inhibition was inactive: 0.16%.

Take `Cc1cc(C)cc(N(C(=O)c2ccccc2)C2CCN(C(=O)OC(C)(C)C)CC2)c1`: the activity change, negative = inhibition is inactive: -0.485%.
